PGC1a acetyl inh: inhibitors of PGC1a acetylation signal, primary screen, cell-based, U2OS, AlphaScreen, inhibitor mode; AlphaScreen anti-acetyl-lysine; with virally co-expressed GCN5 acetyltransferase; inhibition, % at 15.6 µM; hit rate 0.17% among 350,000; AID 651687, 2012;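 active means every replicate shows inhibition of at least 40%; inconclusive means mean inhibition at least 40% but some replicate below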;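 further: 0% = neutral control wells and 100% = positive control wells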
HIV Env fusion: inhibitors of HIV-1 Env-driven cell-cell fusion, primary screen, HeLa-JRFL effector, CEM21 target cells, luciferase. inhibition, % at 12.3 µM. hit rate 1.1% among 360,000;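 active means mean replicate inhibition score of at least 50 and every replicate individually at or above 50; inconclusive means only one of the two criteria met; inactive means mean below 50 and not all replicates reaching 50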;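 further: 0% = plate neutral controls and 100% = maraviroc near 300 nM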
Yeast UUG start: alters start codon recognition fidelity in yeast; S. cerevisiae UUG-firefly luciferase reporter, luminescence/redox ratio; activity score, % at 18.7 µM; actives 0.13% (n = 350,000); AID 602363;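 active = replicate mean at a twofold rise or more, about +100% in these data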;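 also: firefly luciferase made from a UUG start codon reports start codon fidelity; reporter light over untreated wells divided by growth signal over untreated wells; some hits fall short of that in this replicate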
miR122 inh: miR-122 Renilla sensor signal increase in Huh7, primary screen, miR-122 inhibitor project, cell-based, single point, plate reader; hit rate 0.3% among 340,000; AID 602342, 2012; activation (reporter increase), % at 12.5 µM; Huh7 miR-122 Renilla luciferase sensor, 48 h; neutral wells = 0, positive control = 100;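 active means mean replicate activation score at least 90 and every replicate individually at or above 90; inconclusive means only one of the two criteria met; inactive means neither criterion met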;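 further: higher luciferase means less miR-122 activity so hits act as miR-122 inhibitors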
Cneo AK release: Cryptococcus neoformans cell lysis inducers, primary screen, AK release luminescence, single concentration; C. neoformans lysis, adenylate kinase release luminescence, 4 h; normalised: neutral wells 0, clomiphene wells 100; lysis activity, % at 15 µM; hit rate 0.2% among 360,000;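 active means mean lysis activity across replicates of at least 80%, whatever share of replicates individually reach that level; inactive means mean lysis activity below 80%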
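Test system: log-phase Cryptococcus neoformans yeast cells. Input: 5 × 10^6 yeast cells/mL. Medium: fresh YPD growth medium. Doses: single dose. Incubation: static 4 h at 37 °C with compound, 1 h detection. Measured by: luminescent adenylate kinase detection reagent. Read-out: signal increase indicating cell lysis. Benchmarks: Clomiphene.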
FN deposition inh: inhibitors of fibronectin matrix deposition, primary screen, AH1F cells, Alexa488-fibronectin fluorescence, plate reader. AID 743247, 2014. hit rate 0.086% among 350,000. AH1F fibroblasts, overnight. inhibition, % at 12.6 µM;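 active means mean inhibition across replicates of 30% or more, regardless of how many single replicates reach that level; inconclusive means mean under 30% yet at least half of replicates reach 30%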;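 further: positive control wells lacked labelled fibronectin entirely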
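Schedule: 1 h cell adhesion before compound, then overnight fibronectin incubation; test system: AH1F fibroblast monolayer depositing Alexa488-labelled fibronectin into matrix; quantity: 10000 AH1F cells per well; probe or stimulus: fluorescent fibronectin at 24 nM final; signal: fluorescence, ex 485 nm, em 525 nm; evaluation: percent inhibition as loss of matrix-bound fibronectin fluorescence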
Numbers without * were called inactive; ? = inconclusive; / = not tested or not shown; [ ] = dose if it differs, or a comment. This is a sample that favours compounds with a hit; in the whole collection about 1.5% have one here.

SMILES	PGC1a acetyl inh	HIV Env fusion	Yeast UUG start	miR122 inh	Cneo AK release	FN deposition inh
Cc1ccc(S(=O)(=O)N2[C@H](C(C)C)[C@H]3[C@H]4C(=O)N(c5ccccc5)C(=O)[C@H]4CC(=O)[C@H]3[C@@H]2c2ccccc2)cc1	1.7	59.2*	-24.5	6.0	-20.3	2.3
Cc1ccc(S(=O)(=O)N2C[C@H]3C(=O)C[C@@H]4C(=O)N(c5ccccc5)C(=O)[C@@H]4[C@@H]3C[C@@H]2c2ccccc2)cc1	5.2	-98.3	-11.5	-10.8	-1.6	/
Cc1cccc(C(=O)NCC(=O)OCC(=O)c2ccc(Br)s2)c1	/	/	-13.3	/	-1.0	-14.9
COc1ccccc1C(=O)N/C(=C/c1ccc(Br)cc1)C(=O)N1CCCC1	4.6	36.4	/	/	/	31.5*
Cc1ccc(/C=C2\SC(=S)N(NS(=O)(=O)c3ccc(C)cc3)C2=O)cc1	14.9	8.1	-4.5	-4.1	120.6*	0.0
CN(C)c1ccc(O)c2c1CC1CC3[C@@H](N(C)C)C(=O)C(C(N)=O)=C(O)[C@]3(O)C(=O)C1=C2O (stereo not given in full)	7.3	73.4*	-1.6	-18.8	1.2	2.4
C[C@H]1c2cccc(O)c2C(O)=C2C(=O)[C@]3(O)C(O)=C(C(N)=O)C(=O)[C@@H](N(C)C)[C@@H]3[C@@H](O)[C@@H]21	5.6	/	-14.7	6.7	-1.2	/
C[C@@H]1CN([C@@H](C)CO)C(=O)Cc2cc(NC(=O)Nc3ccc(C(F)(F)F)cc3)ccc2O[C@H]1CN(C)Cc1ccc(C(F)(F)F)cc1	5.7	56.5*[16.7 µM]	-9.7	-7.3[16.7 µM]	7.9	/
C[C@@H]1CN([C@H](C)CO)C(=O)Cc2cc(NS(=O)(=O)c3ccc(Cl)cc3)ccc2O[C@@H]1CN(C)Cc1ccc(C(F)(F)F)cc1	-13.5	6.4[16.7 µM]	-7.6	-5.5[16.7 µM]	-4.1	/
C[C@H](CO)N1C[C@H](C)[C@@H](CN(C)Cc2ccc(C(F)(F)F)cc2)Oc2ccc(NC(=O)Nc3ccc(C(F)(F)F)cc3)cc2CC1=O	1.0	58.4*[16.7 µM]	-5.3	-10.9[16.7 µM]	5.7	/
C[C@H]1CN([C@@H](C)CO)C(=O)Cc2cc(NC(=O)Nc3ccc(C(F)(F)F)cc3)ccc2O[C@H]1CN(C)Cc1ccc(C(F)(F)F)cc1	-2.0	-2.0[16.7 µM]	10.8	-0.5[16.7 µM]	50.3	/
C[C@H](CO)N1C[C@H](C)[C@@H](CN(C)Cc2ccc(C(F)(F)F)cc2)Oc2ccc(NS(=O)(=O)c3ccc(Cl)cc3)cc2CC1=O	-11.0	69.0*[16.7 µM]	14.5	-30.6[16.7 µM]	-1.9	-11.6
COc1ccc(CN(C)C[C@H]2Oc3ccc(NC(=O)Nc4ccc(F)cc4)cc3CC(=O)N([C@@H](C)CO)C[C@@H]2C)cc1	-2.2	/	12.1	36.1[16.7 µM]	102.0*	/
COc1ccc2c(c1)C(c1cccs1)=NNC(c1ccncc1)=N2	/	46.6	/	/	/	-21.0
CCOc1ccc(N(C)S(=O)(=O)c2cc(-c3cc(C)no3)ccc2C(C)C)cc1	-64.7	78.6*	/	8.3	/	0.9
CCc1ccc(-c2cc(C)no2)cc1S(=O)(=O)NCc1ccccc1OC	-14.5	-6.5	-9.9	108.9*	6.0	1.6
Cc1cc(-c2ccc(C(C)C)c(S(=O)(=O)NCc3ccco3)c2)on1	-6.8	-7.4	/	167.7*	/	-11.8
COc1cccc(CNS(=O)(=O)c2cc(-c3cc(C)no3)ccc2C(C)C)c1	-2.0	14.9	/	?	/	5.8
CSCCC(NS(=O)(=O)c1ccc2c(c1)oc(=O)n2C)C(=O)NC1CCC(C)CC1 (stereo not given)	/	60.0*	3.1	/	-1.6	-11.4
CSCCC(NS(=O)(=O)c1ccc2c(c1)oc(=O)n2C)C(=O)NC1CCN(Cc2ccccc2)CC1 (stereo not given)	-1.1	-1.7	-40.4	-7.2	0.3	/
Cc1ccc(S(=O)(=O)Oc2ccccc2/C=N/NC(=O)c2nn(C)cc2[N+](=O)[O-])cc1	-12.2	11.4	2.3	-0.8	-2.4	-8.2
O=C1C=CC(=O)N1CCCCCCCCCCN1C(=O)C=CC1=O	-5.5	-36.2	-16.0	-2.7	-0.9	44.1*

Nothing new here: an excerpt of the list.
SMILES	PGC1a acetyl inh	HIV Env fusion	Yeast UUG start	miR122 inh	Cneo AK release	FN deposition inh
CSCCC(NS(=O)(=O)c1ccc2c(c1)oc(=O)n2C)C(=O)NC1CCN(Cc2ccccc2)CC1 (stereo not given)	-1.1	-1.7	-40.4	-7.2	0.3	/
Cc1ccc(S(=O)(=O)Oc2ccccc2/C=N/NC(=O)c2nn(C)cc2[N+](=O)[O-])cc1	-12.2	11.4	2.3	-0.8	-2.4	-8.2
O=C1C=CC(=O)N1CCCCCCCCCCN1C(=O)C=CC1=O	-5.5	-36.2	-16.0	-2.7	-0.9	44.1*
